Data from patent EP4840863A1, “FLUORINE-CONTAINING PARTHENOLIDE DERIVATIVE, PREPARATION METHOD THEREFOR AND USE THEREOF” (dated 2026).
Values joined by “and” are separate entries in the source; they are usually repeats but may differ in a detail not shown here. Equal entries are not always repeated. Marks after values point to notes of the source that are not given here.

Key:
HT-29 = experiment: Anticancer activity test (CCK-8), HT-29 cells; conditions: 72 h, Table 1-1
Description: Cells in logarithmic growth phase were digested, centrifuged, and counted; the cell suspension was adjusted to a concentration of 1500-3500 cells/well, and 95 µL was seeded into each well of a 96-well plate.
After continued overnight culture, drugs at different concentrations were added to the plate, with six replicate wells for each concentration. 10 µL of the drug was added to each well, followed by incubation for 72 h. Then, 10 µL of CCK-8 solution was added to each well (care should be taken to avoid generating bubbles in the wells, as they can affect the OD reading). After incubation in the incubator for 1-4 h, the OD value at 450 nm was measured using a microplate reader. The experiment to assess the effect of each drug on each cell line at different time points was repeated three times.
Data were processed using EXCEL software to calculate the inhibition rate at different concentrations, and SPSS was used to fit the IC50 value. EXCEL was used to calculate the mean and standard deviation of the three IC50 values. Inhibition rate % = {1 - (OD value of drug well - OD value of blank well) / (OD value of control well - OD value of blank well) } * 100%. Table 1-1 Activity of Compounds in Inhibiting Cancer Cells

[1] = Distribution of Compound 4 and released Compound 1 in tissues (brain, pancreas, rectum, liver, lung; LC/MS)
Description: (1) Forty-eight healthy Bar b/c mice, each weighing approximately 20 g, were taken and divided into 3 groups. Blank control group (6 mice), oral gavage administration group (Compound 4 dose: 50 mg/kg, 21 mice), and tail vein injection administration group (Compound 4 dose: 10 mg/kg, 21 mice) (2) For the oral gavage group, blood samples were collected at 5 min, 15 min, 30 min, 1 h, 3 h, 8 h, and 24 h after administration. For the intravenous injection group, blood samples were collected at 2 min, 5 min, 15 min, 30 min, 1 h, 3 h, 8 h, and 24 h after administration. Blood was collected from mice via eyeball removal and placed in anticoagulant tubes containing sodium heparin. The samples were immediately centrifuged at 5000 rpm at low temperature (4°C) for 10 min to obtain plasma samples. The samples were stored in a -80°C freezer for analysis. Three mice were used per time point. (3) The mouse was fixed on a foam board. The skin on the chest was lifted with forceps, and the thoracic skin and ribs were cut open with scissors to expose the heart and liver. The auricle was then cut open. A syringe needle was inserted into the left ventricle of the mouse, and normal saline was perfused for approximately 1 min (10-20 mL) until the mouse's limbs, liver, and tongue turned pale. Brain collection: The skin on the head was cut open to expose the white skull. The cartilage was cut, the skull cap was carefully pried open to expose the white brain, and the entire brain was dissected out. Tissues such as the pancreas, liver, lung, and rectum were also collected. The samples were stored in a -80°C freezer for analysis. (4) The contents of Compound 4 and Compound 1 in peripheral blood and tissues were detected by LC/MS. MS/MS information

[2] = Brain, po (50 mg/kg) Compound 4
[3] = Liver, po (50 mg/kg) Compound 4
[4] = Pancreas, iv (10mg/kg) Compound 4
[5] = Pancreas, po (50 mg/kg) Compound 4
[6] = Rectum, iv (10mg/kg) Compound 4
[7] = Rectum, po (50 mg/kg) Compound 4
[8] = iv (10 mg/kg) Compound 4, 2 min, Mean
[9] = iv (10 mg/kg) Compound 4, 2 min, individual mice, 10 mg/kg
[10] = iv (10 mg/kg) Compound 4, 5min, Mean
[11] = iv (10 mg/kg) Compound 4, 5min, individual mice, 10 mg/kg
[12] = iv (10 mg/kg) Compound 4, 15min, Mean
[13] = iv (10 mg/kg) Compound 4, 15min, individual mice, 10 mg/kg
[14] = iv (10 mg/kg) Compound 4, 30min, Mean
[15] = iv (10 mg/kg) Compound 4, 30min, individual mice, 10 mg/kg
[16] = iv (10 mg/kg) Compound 4, 1h, Mean
[17] = iv (10 mg/kg) Compound 4, 1h, individual mice
[18] = iv (10 mg/kg) Compound 4, 3h, Mean
[19] = po (50 mg/kg) Compound 4, 5min, Mean
[20] = po (50 mg/kg) Compound 4, 5min, individual mice, 50 mg/kg
[21] = po (50 mg/kg) Compound 4, 15min, Mean
[22] = po (50 mg/kg) Compound 4, 15min, individual mice, 50 mg/kg
[23] = po (50 mg/kg) Compound 4, 30min, Mean
[24] = po (50 mg/kg) Compound 4, 30min, individual mice, 50 mg/kg
[25] = po (50 mg/kg) Compound 4, 1h, Mean
[26] = po (50 mg/kg) Compound 4, 1h, individual mice, 50 mg/kg
[27] = po (50 mg/kg) Compound 4, 3h, Mean
[28] = po (50 mg/kg) Compound 4, 8h, Mean
[29] = po (50 mg/kg) Compound 4, 8h, individual mice

C=C1C(=O)OC2C1CCC(CC(F)(F)F)=CCCC1(C)OC21 (stereo not drawn)
IC50 (HT-29): 3.31 µM
AUC0-t ([1]; Brain, iv (10mg/kg) Compound 4): 133 ng·h/g
Fold (AUCtissue/AUCplasma ) ([1]; Brain, iv (10mg/kg) Compound 4): 2.49
AUC0-t [1, 2]: 403 ng·h/g
Fold (AUCtissue/AUCplasma ) [1, 2]: 1.67
AUC0-t ([1]; Liver, iv (10mg/kg) Compound 4): 70 ng·h/g
Fold (AUCtissue/AUCplasma ) ([1]; Liver, iv (10mg/kg) Compound 4): 1.32
AUC0-t [1, 3]: 541 ng·h/g
Fold (AUCtissue/AUCplasma ) [1, 3]: 2.24
AUC0-t ([1]; Lung, iv (10mg/kg) Compound 4): 13 ng·h/g
Fold (AUCtissue/AUCplasma ) ([1]; Lung, iv (10mg/kg) Compound 4): 0.24
AUC0-t ([1]; Lung, po (50 mg/kg) Compound 4): 80 ng·h/g
Fold (AUCtissue/AUCplasma ) ([1]; Lung, po (50 mg/kg) Compound 4): 0.33
AUC0-t [1, 4]: 17 ng·h/g
Fold (AUCtissue/AUCplasma ) [1, 4]: 0.32
AUC0-t [1, 5]: 136 ng·h/g
Fold (AUCtissue/AUCplasma ) [1, 5]: 0.56
AUC0-t [1, 6]: 47 ng·h/g
Fold (AUCtissue/AUCplasma ) [1, 6]: 0.88
AUC0-t [1, 7]: 675 ng·h/g
Fold (AUCtissue/AUCplasma ) [1, 7]: 2.80
Concentration of Compound 1 in Liver [1, 8]: 139.0 ng/g
Concentration of Compound 1 in the Lung [1, 8]: 38.9 ng/g
Concentrations of Compound 1 in Brain Tissue [1, 8]: 350 ng/g
Concentrations of Compound 1 in Pancreatic Tissue [1, 8]: 64.3 ng/g
Concentrations of Compound 1 in Rectum [1, 8]: 85.5 ng/g
Concentration of Compound 1 in Liver [1, 9]: 223 ng/g and 113 ng/g and 81.1 ng/g
Concentrations of Compound 1 in Brain Tissue [1, 9]: 356 ng/g and 271 ng/g and 422 ng/g
Concentrations of Compound 1 in Pancreatic Tissue [1, 9]: 78.6 ng/g and 68.3 ng/g and 46.1 ng/g
Concentrations of Compound 1 in Rectum [1, 9]: 85.6 ng/g and 113 ng/g and 57.9 ng/g
Concentration of Compound 1 in Liver [1, 10]: 117.5 ng/g
Concentration of Compound 1 in the Lung [1, 10]: 36.2 ng/g
Concentrations of Compound 1 in Brain Tissue [1, 10]: 225 ng/g
Concentrations of Compound 1 in Pancreatic Tissue [1, 10]: 43.3 ng/g
Concentrations of Compound 1 in Rectum [1, 10]: 101 ng/g
Concentration of Compound 1 in Liver [1, 11]: 101 ng/g and 72.6 ng/g and 179 ng/g
Concentrations of Compound 1 in Rectum [1, 11]: 143 ng/g and 79.1 ng/g and 80.8 ng/g
Concentration of Compound 1 in Liver [1, 12]: 57.6 ng/g
Concentration of Compound 1 in the Lung [1, 12]: 15.24 ng/g
Concentrations of Compound 1 in Brain Tissue [1, 12]: 170 ng/g
Concentrations of Compound 1 in Pancreatic Tissue [1, 12]: 16.9 ng/g
Concentrations of Compound 1 in Rectum [1, 12]: 48.0 ng/g
Concentration of Compound 1 in Liver [1, 13]: 38 ng/g and 72.6 ng/g and 62.1 ng/g
Concentrations of Compound 1 in Pancreatic Tissue [1, 13]: 22.4 ng/g
Concentrations of Compound 1 in Rectum [1, 13]: 35.0 ng/g and 54.0 ng/g and 55.1 ng/g
Concentration of Compound 1 in Liver [1, 14]: 32.3 ng/g
Concentration of Compound 1 in the Lung [1, 14]: 4.73 ng/g
Concentrations of Compound 1 in Brain Tissue [1, 14]: 22.5 ng/g
Concentrations of Compound 1 in Pancreatic Tissue [1, 14]: 11.67 ng/g
Concentrations of Compound 1 in Rectum [1, 14]: 50.27 ng/g
Concentration of Compound 1 in Liver [1, 15]: 24.9 ng/g and 42.5 ng/g and 29.4 ng/g
Concentrations of Compound 1 in Brain Tissue [1, 15]: 25.8 ng/g and 16.1* ng/g and 25.5 ng/g
Concentration of Compound 1 in Liver [1, 16]: 17.4 ng/g
Concentration of Compound 1 in the Lung [1, 16]: 5.39 ng/g
Concentrations of Compound 1 in Brain Tissue [1, 16]: 32.9 ng/g
Concentrations of Compound 1 in Pancreatic Tissue [1, 16]: 0.942 ng/g
Concentrations of Compound 1 in Rectum [1, 16]: 8.19 ng/g
Concentration of Compound 1 in the Lung [1, 17]: 5.39* ng/g
Concentrations of Compound 1 in Pancreatic Tissue [1, 17]: 0.942* ng/g
Concentration of Compound 1 in Liver ([1]; iv (10 mg/kg) Compound 4, 1h, individual mice, 10 mg/kg): 14.5* ng/g (2×) and 23.1 ng/g
Concentration of Compound 1 in Liver [1, 18]: 3.21 ng/g
Concentrations of Compound 1 in Brain Tissue [1, 18]: 0.86 ng/g
Concentrations of Compound 1 in Brain Tissue ([1]; iv (10 mg/kg) Compound 4, 3h, individual mice): 0.863* ng/g
Concentration of Compound 1 in Liver [1, 19]: 1126.0 ng/g
Concentration of Compound 1 in the Lung [1, 19]: 72.3 ng/g
Concentrations of Compound 1 in Brain Tissue [1, 19]: 368 ng/g
Concentrations of Compound 1 in Pancreatic Tissue [1, 19]: 133 ng/g
Concentrations of Compound 1 in Rectum [1, 19]: 96 ng/g
Concentration of Compound 1 in Liver [1, 20]: 1090 ng/g and 898 ng/g and 1390 ng/g
Concentration of Compound 1 in the Lung [1, 20]: 55.2 ng/g and 78.7 ng/g and 83 ng/g
Concentrations of Compound 1 in Brain Tissue [1, 20]: 245 ng/g and 414 ng/g and 446 ng/g
Concentrations of Compound 1 in Pancreatic Tissue [1, 20]: 158 ng/g and 61.1 ng/g and 180 ng/g
Concentrations of Compound 1 in Rectum [1, 20]: 80.3 ng/g and 101 ng/g and 107 ng/g
Concentration of Compound 1 in Liver [1, 21]: 388.0 ng/g
Concentration of Compound 1 in the Lung [1, 21]: 32.9 ng/g
Concentrations of Compound 1 in Brain Tissue [1, 21]: 416 ng/g
Concentrations of Compound 1 in Pancreatic Tissue [1, 21]: 89.8 ng/g
Concentrations of Compound 1 in Rectum [1, 21]: 78.4 ng/g
Concentration of Compound 1 in Liver [1, 22]: 460.0 ng/g and 417.0 ng/g and 287 ng/g
Concentrations of Compound 1 in Brain Tissue [1, 22]: 507 ng/g and 441 ng/g and 300 ng/g
Concentrations of Compound 1 in Pancreatic Tissue [1, 22]: 73.6 ng/g and 97.4 ng/g and 98.4 ng/g
Concentrations of Compound 1 in Rectum [1, 22]: 132 ng/g and 49.8 ng/g and 53.3 ng/g
Concentration of Compound 1 in Liver [1, 23]: 219.7 ng/g
Concentration of Compound 1 in the Lung [1, 23]: 28.0 ng/g
Concentrations of Compound 1 in Brain Tissue [1, 23]: 275 ng/g
Concentrations of Compound 1 in Pancreatic Tissue [1, 23]: 130 ng/g
Concentrations of Compound 1 in Rectum [1, 23]: 177 ng/g
Concentration of Compound 1 in Liver [1, 24]: 147 ng/g and 206 ng/g and 306 ng/g
Concentrations of Compound 1 in Brain Tissue [1, 24]: 268 ng/g and 209 ng/g and 348 ng/g
Concentration of Compound 1 in Liver [1, 25]: 55.9 ng/g
Concentration of Compound 1 in the Lung [1, 25]: 32 ng/g
Concentrations of Compound 1 in Brain Tissue [1, 25]: 77.5 ng/g
Concentrations of Compound 1 in Pancreatic Tissue [1, 25]: 27.5 ng/g
Concentrations of Compound 1 in Rectum [1, 25]: 27.3 ng/g
Concentration of Compound 1 in Liver [1, 26]: 59.8 ng/g and 46 ng/g and 61.9 ng/g
Concentration of Compound 1 in the Lung [1, 26]: 38.6 ng/g and 31.5 ng/g and 25.6 ng/g
Concentrations of Compound 1 in Brain Tissue [1, 26]: 107 ng/g and 65.4 ng/g and 60.0 ng/g
Concentrations of Compound 1 in Pancreatic Tissue [1, 26]: 28.0 ng/g and 29.0 ng/g and 25.6 ng/g
Concentrations of Compound 1 in Rectum [1, 26]: 36.6 ng/g and 31.1 ng/g and 14.3* ng/g
Concentration of Compound 1 in Liver [1, 27]: 35.3 ng/g
Concentration of Compound 1 in the Lung [1, 27]: 14 ng/g
Concentrations of Compound 1 in Brain Tissue [1, 27]: 11.0 ng/g
Concentrations of Compound 1 in Pancreatic Tissue [1, 27]: 17.9 ng/g
Concentrations of Compound 1 in Rectum [1, 27]: 144 ng/g
Concentrations of Compound 1 in Pancreatic Tissue ([1]; po (50 mg/kg) Compound 4, 3h, individual mice, 50 mg/kg): 23.4 ng/g and 12.4* ng/g
Concentration of Compound 1 in Liver [1, 28]: 17.3 ng/g
Concentrations of Compound 1 in Brain Tissue [1, 28]: 12.9 ng/g
Concentrations of Compound 1 in Rectum [1, 28]: 16.8 ng/g
Concentration of Compound 1 in Liver [1, 29]: 17.3* ng/g
Concentrations of Compound 1 in Brain Tissue [1, 29]: 12.9* ng/g
Concentrations of Compound 1 in Rectum [1, 29]: 16.8* ng/g
